Bioassay records deposited in PubChem by Broad Institute.
Shown are actives, neighbours in structure and some others; about 2.1% of the full set was active somewhere.
PGC1a acetyl inh: modulators of PGC1a acetylation | U2OS PGC1a acetylation, AlphaScreen anti-acetyl-lysine; with virally co-expressed GCN5 acetyltransferase | inhibition, % at 15.6 µM | 0.17% of 350,000 active | AID 651687;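 active = every replicate shows inhibition of at least 40%; inconclusive = mean inhibition at least 40% but some replicate below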;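 note: 0% = neutral control wells and 100% = positive control wells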
MITF TRPM1 inh: inhibitors of MITF-driven TRPM1 promoter in melanoma cells; AID 488899; inhibition, % at 12.5 µM; SK-MEL-5 TRPM1 promoter luciferase, 24 h; 0.83% of 330,000 active;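 active = mean inhibition across replicates of 60% or more, whatever share of single replicates reaches that level; inconclusive = some that reach 60%, reason not given; inactive = mean inhibition across replicates below 60%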
miR122 inh: miR-122 inhibition in Huh7 cells | Huh7 miR-122 Renilla luciferase sensor, 48 h; neutral wells = 0, positive control = 100 | activation (reporter increase), % at 12.5 µM | 0.3% of 340,000 active | AID 602342;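 active = mean replicate activation score at least 90 and every replicate individually at or above 90; inconclusive = only one of the two criteria met; inactive = neither criterion met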;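 note: higher luciferase means less miR-122 activity so hits act as miR-122 inhibitors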
UUG fidelity: alters start codon recognition fidelity in yeast. S. cerevisiae UUG-firefly luciferase reporter, luminescence/redox ratio. activity score, % at 18.7 µM. 0.13% of 350,000 active. AID 602363;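 active = replicate mean at a twofold rise or more, about +100% in these data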;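 also: firefly luciferase made from a UUG start codon reports start codon fidelity; reporter light over untreated wells divided by growth signal over untreated wells; some hits fall short of that in this replicate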
Wnt bcat act: Wnt/beta-catenin pathway activation | Wnt/beta-catenin reporter cell assay, activator, plate reader | activation, % at 9.35 µM | 1.2% of 300,000 active; in the data active = activation above about 30%, passing the limit was not always enough; inconclusive = no clear call, values can overlap the other calls;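 note: 0% = neutral control wells and 100% = positive control wells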
MITF TRPM1 HTS: increases MITF-driven TRPM1 promoter luciferase signal; SK-MEL-5 TRPM1-promoter luciferase, 24 h; % of positive control, neutral wells = 0; activation, % at 12.5 µM; 0.75% of 300,000 active;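 active = mean activation of at least 80% with every replicate also reaching 80%; inconclusive = mean reaches 80% but some replicate falls short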;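 note: 0% = neutral control wells and 100% = parthenolide positive control wells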
Starred values were filed as active, the others as inactive; [ ] = another dose, or the depositor's remark.

`O=C(OCc1ccc(Cl)c(Cl)c1)c1cccnc1Cl` gave PGC1a acetyl inh 12.1, MITF TRPM1 inh -10.7, miR122 inh -4.2, UUG fidelity -5.4, Wnt bcat act 1.1 and MITF TRPM1 HTS 12.6.
Screening COc1cc(CNCc2ccccn2)ccc1OCc1ccc(Cl)c(Cl)c1 returned PGC1a acetyl inh -15.3, MITF TRPM1 inh -106.3, miR122 inh 1.4, UUG fidelity -55.1, Wnt bcat act 24.8 and MITF TRPM1 HTS 105.1*.
Screening COc1cc(CNCc2ccccn2)ccc1OCc1ccc(Cl)cc1Cl returned PGC1a acetyl inh -1.7, MITF TRPM1 inh -5.9, miR122 inh 2.8 and MITF TRPM1 HTS 2.7.
`Cc1cccc(/C=C/C(=O)c2ccc(N3CCOCC3)cc2)c1` gave Wnt bcat act -3.1.
Cc1ccc(/C=C/C(=O)c2ccc(N3CCOCC3)cc2)s1 was read as PGC1a acetyl inh -10.7, MITF TRPM1 inh -94.5, miR122 inh 6.3, Wnt bcat act 10.9 and MITF TRPM1 HTS 91.5*.
Screening CC=Cc1ccc2n(c1=O)C[C@H]1[C@H](CO)[C@@H](C(=O)NCc3ccc4c(c3)OCO4)[C@@H]2N1C(=O)CC (mixture of isomers) returned miR122 inh 2.4[16.7 µM].
For CCn1c(SCC#N)nc2ccccc2c1=O the results were PGC1a acetyl inh 10.9, MITF TRPM1 inh 5.8, miR122 inh 0.1, UUG fidelity -19.3, Wnt bcat act -1.0 and MITF TRPM1 HTS -4.6.
N#CCSc1nc2ccccc2c2nc3ccccc3n12 was read as MITF TRPM1 inh 76.6*, UUG fidelity -13.8, Wnt bcat act 5.7 and MITF TRPM1 HTS -77.8.
COC(=O)c1ccc([C@@H]2C=C(C(=O)NCc3ccccc3)O[C@H](OCCCCO)C2)cc1 was read as UUG fidelity -7.6.
For CN(C)c1ccc(/C=C/c2nc3ccccc3s2)cc1 the results were PGC1a acetyl inh 1.0, MITF TRPM1 inh 77.1*, miR122 inh -4.8, UUG fidelity -46.6 and MITF TRPM1 HTS -76.6.
For C(=C\c1ccc2ccccc2n1)/c1ccccc1 the results were MITF TRPM1 inh 58.2, miR122 inh 1.6, UUG fidelity -80.3, Wnt bcat act -15.0 and MITF TRPM1 HTS -56.1.
For O/C(=C\c1ccc2ccccc2n1)c1ccc(O)cc1O the results were MITF TRPM1 inh -25.1, miR122 inh 3.8, UUG fidelity -60.5, Wnt bcat act 42.8* and MITF TRPM1 HTS 20.0.
`Cc1ccc(/C=C/c2nc3ccccc3s2)s1` gave PGC1a acetyl inh -1.9, MITF TRPM1 inh 40.4, miR122 inh 3.1, UUG fidelity -67.6 and MITF TRPM1 HTS -40.4.
Screening CN(C)c1ccc(/C=C/c2ccc3ccccc3n2)cc1 returned PGC1a acetyl inh -6.8, MITF TRPM1 inh 72.2*, miR122 inh -0.6, UUG fidelity -88.3 and MITF TRPM1 HTS -67.3.
For Oc1ccc(/C=C/c2ccc3ccccc3n2)cc1 the results were MITF TRPM1 inh 69.9*, miR122 inh -6.3, UUG fidelity -68.4, Wnt bcat act -3.4 and MITF TRPM1 HTS -69.7.
Screening O=[N+]([O-])c1ccc(/C=C/c2ccc3ccccc3n2)cc1 returned PGC1a acetyl inh 8.1, MITF TRPM1 inh 5.3, miR122 inh -8.1, UUG fidelity -30.4, Wnt bcat act 4.5 and MITF TRPM1 HTS -3.3.
CC(C)C[C@H]1CNC(=S)N1CC1CCCN1C[C@H](Cc1ccccc1)N1C[C@H](Cc2ccc(O)cc2)N(CC2CCCCCC2)C1=S (stereo partly specified) was read as PGC1a acetyl inh 50.6*, MITF TRPM1 inh 25.1, miR122 inh -4.3, UUG fidelity 3.6, Wnt bcat act -3.2 and MITF TRPM1 HTS -23.6.
For CC(C)C[C@H]1CN([C@@H](Cc2ccc(O)cc2)CN2CCC[C@@H]2CN2C(=S)NC[C@@H]2Cc2ccccc2)C(=S)N1CC1CCCCCC1 the results were PGC1a acetyl inh -15.0, miR122 inh -2.2, UUG fidelity -18.6 and Wnt bcat act -3.7.
Screening Cc1cccc(-c2nc(C#N)c(NCc3ccco3)o2)c1 returned PGC1a acetyl inh 6.4, MITF TRPM1 inh -57.6, miR122 inh -0.7, UUG fidelity -10.9 and Wnt bcat act 31.8*.
Cc1cc(/C=C(\C#N)c2nc3ccccc3[nH]2)c(C)n1C was read as PGC1a acetyl inh -3.8, MITF TRPM1 inh -57.4, miR122 inh 10.5, UUG fidelity -12.8, Wnt bcat act 83.8* and MITF TRPM1 HTS 63.1.
CN1[C@H](CO)[C@@H]2c3ccccc3N(C(=O)Nc3ccccc3F)C[C@@H]21 was read as PGC1a acetyl inh -3.1, miR122 inh -7.1[16.7 µM] and UUG fidelity 15.8.
O=C1COc2ccc(S(=O)(=O)Nc3ccc(F)cc3)cc2N1 was read as PGC1a acetyl inh -6.8, MITF TRPM1 inh 1.1, miR122 inh 112.3*, UUG fidelity -5.3, Wnt bcat act 2.9 and MITF TRPM1 HTS -0.8.
`Cc1ccc(NS(=O)(=O)c2ccc3c(c2)NC(=O)CO3)c(C)c1` gave PGC1a acetyl inh -11.4, MITF TRPM1 inh 7.3, miR122 inh 12.0, UUG fidelity 11.9, Wnt bcat act -0.4 and MITF TRPM1 HTS -4.6.
`O=C(OCc1nc2ccsc2c(=O)[nH]1)c1ccccc1` gave PGC1a acetyl inh 11.0, MITF TRPM1 inh -2.0, miR122 inh -0.1, UUG fidelity -15.2, Wnt bcat act 3.9 and MITF TRPM1 HTS 5.7.
O=C(OCc1nc2ccsc2c(=O)[nH]1)c1ccc(Cl)nc1 was read as PGC1a acetyl inh 1.9, MITF TRPM1 inh 11.1, miR122 inh -1.6, UUG fidelity -15.3, Wnt bcat act 41.3* and MITF TRPM1 HTS -8.5.
Screening CO[C@@H]1CN(C)C(=O)c2cc(NC(=O)c3nc4ccccc4s3)ccc2OC[C@@H](C)N(Cc2cncnc2)C[C@@H]1C returned PGC1a acetyl inh -4.9.
C(=Cc1c[nH]c2ccccc12)c1nccc2ccccc12 was read as PGC1a acetyl inh 1.8, MITF TRPM1 inh -27.2, miR122 inh 30.5, UUG fidelity -30.5, Wnt bcat act 41.8* and MITF TRPM1 HTS 27.8.
Screening C(=Cc1c[nH]c2ccccc12)c1ccc2ccccc2n1 returned PGC1a acetyl inh 1.2, MITF TRPM1 inh 18.9, miR122 inh 21.2, UUG fidelity -66.0, Wnt bcat act 4.9 and MITF TRPM1 HTS -19.9.
For C[C@H]1CN([C@@H](C)CO)C(=O)c2cccc(NS(C)(=O)=O)c2O[C@H]1CN(C)S(=O)(=O)c1cn(C)cn1 the results were PGC1a acetyl inh -5.8, miR122 inh 8.5[16.7 µM] and UUG fidelity -9.9.
For Clc1ccc(-c2cnn3c(-c4ccncc4)ccnc23)cc1 the results were PGC1a acetyl inh 4.0, MITF TRPM1 inh -12.9, Wnt bcat act 63.8* and MITF TRPM1 HTS 14.6.
For C/C(=C\c1ccc(N)cc1)c1nc2ccccc2[nH]1 the results were PGC1a acetyl inh 6.8, MITF TRPM1 inh -84.7, miR122 inh -8.4, UUG fidelity -41.1, Wnt bcat act 1.9 and MITF TRPM1 HTS inconclusive.

An excerpt from the list above:
Screening C(=Cc1c[nH]c2ccccc12)c1ccc2ccccc2n1 returned PGC1a acetyl inh 1.2, MITF TRPM1 inh 18.9, miR122 inh 21.2, UUG fidelity -66.0, Wnt bcat act 4.9 and MITF TRPM1 HTS -19.9.
For C[C@H]1CN([C@@H](C)CO)C(=O)c2cccc(NS(C)(=O)=O)c2O[C@H]1CN(C)S(=O)(=O)c1cn(C)cn1 the results were PGC1a acetyl inh -5.8, miR122 inh 8.5[16.7 µM] and UUG fidelity -9.9.
For Clc1ccc(-c2cnn3c(-c4ccncc4)ccnc23)cc1 the results were PGC1a acetyl inh 4.0, MITF TRPM1 inh -12.9, Wnt bcat act 63.8* and MITF TRPM1 HTS 14.6.
For C/C(=C\c1ccc(N)cc1)c1nc2ccccc2[nH]1 the results were PGC1a acetyl inh 6.8, MITF TRPM1 inh -84.7, miR122 inh -8.4, UUG fidelity -41.1, Wnt bcat act 1.9 and MITF TRPM1 HTS inconclusive.
